Assay: Serum 1,25D levels in germ-free mice
Conditions: GF mice fed 50 μg PSA 3× per week for 2 weeks, oral

## polysaccharide A [PSA]
  serum levels of 1,25D: increases serum levels of 1,25D
